Test results published in patent US4820727A, “N-acyl-N-naphthoylglycines as aldose reductase inhibitors” (American Home Products Corporation, priority 1987, dated 1989).

Tested on: dulcitol accumulation
Assay: Galactosemic rats, % lowering of dulcitol (galactitol) accumulation in vivo
Parameters: species or system Sprague-Dawley rats
Settings: diaphragm, 9 mg/kg, 4 days
From the text: Such experiments are exemplified hereinbelow after the listing of the following general comments pertaining to these experiments:
(a) Four or more groups of six male rats, 50-70 g, Sprague-Dawley strain, were used. The first group, the control group, was fed a mixture of laboratory chow (rodent Laboratory Chow, Purina) and glucose at 20% (w/w %) concentration. […] The test compound was either admixed to the diet or administered by gavage. In experiments involving compound administration in the diet, the average dose administered was calculated from the actual food intake of the animals in each group. The concentration of galactose in the diet of the treated groups was the same as that for the untreated galactosemic group.
(b) After four days, the animals were killed by decapitation. The eyeballs were removed and punctured with a razor blade; the freed lenses were rolled gently on filter paper and weighed. The sciatic nerves were dissected as completely as possible and weighed. Both tissues when frozen can be kept up to two weeks before being analyzed for galactitol.
Only two minor reagent changes were made: (a) the rinsing mixture was an aqueous 5% (w/v) trichloroacetic acid solution and (b) the stock solution was prepared by dissolving 25 mg of dulcitol in 100 mL of an aqueous trichloroacetic acid solution. […]

For COc1ccc2c(C(=S)N(C)CC(=O)O)cccc2c1C(F)(F)F [Tolrestat, N-[[6-methoxy-5-(trifluoromethyl)-1-naphthalenyl]thioxo-methyl]-N-methylglycine, reference compound], the “% Lowering dulcitol accumulation IN VIVO, D” value was 87%.
